Assay results reported in PubChem BioAssay AID2524 (Sanford-Burnham Center for Chemical Genomics, 2010).
Only a part is listed here, and it is no random draw. Calls of active or inactive are those of the source.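 Rule for the calls: active = activation factor of the enzyme at least 2-fold when tested at 20 µM; inactive = the rest.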

The chains behind the UniProt entries cited, without tags or fusion partners. Where a name states a change or a piece, a line headed by the entry shows the natural chain unless it says otherwise.
UniProt P09923: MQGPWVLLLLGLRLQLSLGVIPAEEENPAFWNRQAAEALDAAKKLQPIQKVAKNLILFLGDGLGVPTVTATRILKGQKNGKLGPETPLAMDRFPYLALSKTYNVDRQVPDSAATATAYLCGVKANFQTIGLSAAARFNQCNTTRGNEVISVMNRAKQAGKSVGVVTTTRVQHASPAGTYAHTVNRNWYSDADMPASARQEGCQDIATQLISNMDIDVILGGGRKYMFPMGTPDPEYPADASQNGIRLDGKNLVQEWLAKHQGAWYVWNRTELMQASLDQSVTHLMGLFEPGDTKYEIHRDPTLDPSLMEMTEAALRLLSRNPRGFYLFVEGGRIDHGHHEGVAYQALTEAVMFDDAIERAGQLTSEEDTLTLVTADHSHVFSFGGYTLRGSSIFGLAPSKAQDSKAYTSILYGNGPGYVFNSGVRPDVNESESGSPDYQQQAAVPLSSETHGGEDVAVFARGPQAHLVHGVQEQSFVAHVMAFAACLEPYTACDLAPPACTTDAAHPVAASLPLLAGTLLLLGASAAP

Each compound was assayed against Intestinal-type alkaline phosphatase (Homo sapiens) (UniProt P09923) (assay: human IAP activators, primary screen, biochemical, luminescence, uHTS (AID 2524)). Conditions: purified human IAP, CDP-Star luminescence, 30 min; at 10 µM; hits give high values; 1 = vehicle-only enzyme, 0 = enzyme-free background.
In the case of `NC(=O)c1cc([N+](=O)[O-])cc([N+](=O)[O-])c1N`, the activation factor is reported as inactive: 1.08. In the case of `Clc1ccc(Cl)c(NC2=NCC(CBr)S2)c1` (stereo not drawn), the activation factor is reported as inactive: 0.86. For `CN1CCCC(OC(=O)C(c2ccccc2)c2ccccc2)C1` (stereo not drawn), the activation factor was inactive: 1. In the case of `COc1ccccc1OP(=O)(Nc1ccc(C)cn1)Oc1ccccc1OC`, the activation factor is reported as inactive: 1.16. `Cc1ccc(OP(=O)(Nc2nccs2)Oc2ccc(C)cc2)cc1` was tested, and the activation factor was inactive: 1.18. For `Oc1ccccc1CNc1ccccn1`, the activation factor was inactive: 0.973. For `Cc1c2non([O-])c-2c(C)[n+](=O)[n+]1[O-]`, the activation factor was inactive: 0.903. `O=C(NC(Sc1ccncn1)C(Cl)(Cl)Cl)c1ccccc1` (stereo not drawn) was tested, and the activation factor was inactive: 1.01. `CC(C)CC(=O)NC(Sc1ccc(Cl)cc1)C(Cl)(Cl)Cl` (stereo not drawn) was tested, and the activation factor was inactive: 1.18. In the case of `Nc1cc(N)c2nonc2c1[N+](=O)[O-]`, the activation factor is reported as inactive: 0.984. `O=P1(Nc2nc3ccc(Cl)cc3s2)COc2ccccc2O1` (stereo not drawn) was tested, and the activation factor was inactive: 1.04. With `CCOc1ccc(C2=NCC(CBr)S2)cc1` (stereo not drawn) the activation factor was inactive: 0.965. In the case of `CC(C)(C)C(=O)NC(Sc1ccccc1)C(Cl)(Cl)Cl` (stereo not drawn), the activation factor is reported as inactive: 0.965. For `Cc1ccccc1CN(C)C(=O)COC(=O)C(O)(c1ccccc1)c1ccccc1`, the activation factor was inactive: 0.967. `C[C@@H]1C=CCP(=O)(Oc2ccccc2)O1` (stereo partly drawn) was tested, and the activation factor was inactive: 1.04. For `C[C@H]1OP(=O)(Oc2ccccc2)C[C@@H]2O[C@@H]21` (stereo partly drawn), the activation factor was inactive: 0.953. With `CC(=O)c1ccc(N2CC2c2ccncc2)cc1` (stereo not drawn) the activation factor was inactive: 0.74. With `CC(=O)Nc1ccc([As](=O)(O)O)c(O)c1` the activation factor was inactive: 1.12. `CC(=O)Nc1ccc(Oc2c([N+](=O)[O-])cc([N+](=O)[O-])cc2[N+](=O)[O-])cc1` was tested, and the activation factor was inactive: 1.03. With `c1ccc(-c2nn[nH]n2)c(-c2nn[nH]n2)c1` the activation factor was inactive: 1.09. For `Cc1ccc(NP(=O)(Oc2cccc(C)c2)Oc2cccc(C)c2)nc1`, the activation factor was inactive: 1.18. `CCOC(=O)NC(Sc1ccccc1)C(Cl)(Cl)Cl` (stereo not drawn) was tested, and the activation factor was inactive: 0.836. `O=C(NC1CCS(=O)(=O)C1)NP(=S)(Oc1ccccc1)Oc1ccccc1` (stereo not drawn) was tested, and the activation factor was inactive: 0.969. In the case of `CCNC(=S)/N=C(\N)N[N+](=O)[O-]`, the activation factor is reported as inactive: 0.929. For `O=C(OC1CN2CCC1CC2)c1ccccc1` (stereo not drawn), the activation factor was inactive: 1.09. For `CCC(=O)N1C2C3N(C(=O)CC)C1C1N(C(=O)CC)C(C(N1C(=O)CC)N3C(=O)CC)N2C(=O)CC`, the activation factor was inactive: 1.06. `COC(=O)c1cc2c(s1)N=C(c1ccccc1)N(C)P2(=O)N1CCOCC1` (stereo not drawn) was tested, and the activation factor was inactive: 1.05. For `CC(=O)NC(SC(=S)N(CC(C)C)CC(C)C)C(Cl)(Cl)Cl` (stereo not drawn), the activation factor was inactive: 1.29. `Cc1ccc(OP(=O)(Nc2ccccn2)Oc2ccc(C)cc2)cc1` was tested, and the activation factor was inactive: 1.09. In the case of `Cc1ccccc1OP(=O)(Nc1ccccn1)Oc1ccccc1C`, the activation factor is reported as inactive: 1.1. For `CC(NC(=O)COC(=O)C(O)(c1ccccc1)c1ccccc1)c1ccccc1` (stereo not drawn), the activation factor was inactive: 0.973. In the case of `CN(C)C(=O)Oc1noc2ccccc12`, the activation factor is reported as inactive: 0.905. For `CN(C)C1(CNC(=O)c2ccc(Cl)c(S(N)(=O)=O)c2)CCCCC1`, the activation factor was inactive: 0.77. `O=P(Nc1ccccn1)(c1ccc(Br)cc1)c1ccc(Br)cc1` was tested, and the activation factor was inactive: 1.11. For `O=P(Nc1nc2ccccc2s1)(c1ccccc1)c1ccccc1`, the activation factor was inactive: 1.01. With `C[C@H]1OP(=O)(Oc2ccccc2)[C@H](O)[C@H](O)[C@H]1N=[N+]=[N-]` (stereo partly drawn) the activation factor was inactive: 1.01. With `O=[As](O)(c1ccccc1)c1ccc(O)cc1` the activation factor was inactive: 1.07. `O=[N+]([O-])c1ncn(CCn2cnc([N+](=O)[O-])n2)n1` was tested, and the activation factor was inactive: 1. With `O=C(OC1CN2CCC1CC2)c1cccc(Cl)c1` (stereo not drawn) the activation factor was inactive: 1.05. In the case of `Nc1ccc([As](=O)(O)c2ccc([N+](=O)[O-])cc2)cc1`, the activation factor is reported as inactive: 0.966. For `C(Cc1nn[nH]n1)Cc1nn[nH]n1`, the activation factor was inactive: 0.97. In the case of `O=P(Nc1nccs1)(c1ccccc1)c1ccccc1`, the activation factor is reported as inactive: 1.04. For `CC(C)C(=O)NC(Sc1ccccc1)C(Cl)(Cl)Cl` (stereo not drawn), the activation factor was inactive: 0.96. `c1nnnn1CCn1cnnn1` was tested, and the activation factor was inactive: 1.04. With `CCC1=CC2Cc3nc4ccc(Cl)cc4c(N)c3C(C1)C2` (stereo not drawn) the activation factor was inactive: 0.961. In the case of `O=P1(Nc2ccccn2)COc2ccccc2OC1`, the activation factor is reported as inactive: 1.16. For `CCOP(=O)(NC(=NC(C)c1ccccc1)NC(C)c1ccccc1)OCC` (stereo not drawn), the activation factor was inactive: 1.09. `CN(CCCl)Cc1cc(Cl)c(NC2=NCCN2)c(Cl)c1` was tested, and the activation factor was inactive: 0.901. In the case of `CCOP(=O)(Nc1ccc(C)cn1)OCC`, the activation factor is reported as inactive: 0.844. In the case of `Clc1n[nH]nc1-c1nn[nH][15n]1`, the activation factor is reported as inactive: 0.964. `CC(C)(C)C(=O)NC(Sc1ncccn1)C(Cl)(Cl)Cl` (stereo not drawn) was tested, and the activation factor was inactive: 0.992. With `COc1ccccc1CNC(=O)COC(=O)C(O)(c1ccccc1)c1ccccc1` the activation factor was inactive: 0.922. With `CN(C(=O)Cc1ccc(Cl)c(Cl)c1)[C@@H]1CCCC[C@H]1N1CCCC1` the activation factor was inactive: 1.07. `CC(C)/C=N\N=C(\N)N[N+](=O)[O-]` was tested, and the activation factor was inactive: 0.879. `O=[As](O)(c1ccccc1Br)c1ccccc1Br` was tested, and the activation factor was inactive: 1.16. In the case of `CC1(CBr)Cn2c(nc3ccccc3c2=O)S1` (stereo not drawn), the activation factor is reported as inactive: 0.966. With `Cc1nn(-c2ccccc2)c2c1P(=O)(N1CCOCC1)N(C)C(c1ccccc1)=N2` (stereo not drawn) the activation factor was inactive: 1.01. For `Cc1ccc(C(=O)OC2CN3CCC2CC3)cc1` (stereo not drawn), the activation factor was inactive: 0.917. With `CC1CCC(C(C)C)C(OP(=O)(Nc2ccccn2)c2ccccc2)C1` (stereo not drawn) the activation factor was inactive: 0.948. In the case of `CN(C)C1(CNC(=O)c2ccc(S(C)(=O)=O)cc2)CCCCC1`, the activation factor is reported as inactive: 1.08. For `O=C(/C=C/c1ccccc1)OC1CN2CCC1CC2` (stereo not drawn), the activation factor was inactive: 0.96. With `O=P1(Nc2ncccn2)COc2ccccc2OC1` the activation factor was inactive: 0.939. In the case of `Nc1cccc([As](=O)(O)c2ccccc2)c1`, the activation factor is reported as inactive: 1.12. For `NS(=O)(=O)c1cccc(NC(=O)COC(=O)C(O)(c2ccccc2)c2ccccc2)c1`, the activation factor was inactive: 1.09. For `O=P1(Nc2ccc(Br)cn2)COc2ccccc2OC1`, the activation factor was inactive: 1.11. With `Cc1ccc(OCC(=O)OC2CN3CCC2CC3)cc1` (stereo not drawn) the activation factor was inactive: 1.09. With `O=[As](O)(c1cccs1)c1cccs1` the activation factor was inactive: 1.04. `CCOP1(=S)c2c(C)nn(CCC#N)c2N=C(c2ccccc2F)N1C` (stereo not drawn) was tested, and the activation factor was inactive: 0.951.
